The text below walks through data of EP4825838A1, “CATIONIC LIPID AND USE THEREOF” (dated 2026).

A short description of series [1]: Freeze-drying of lipid particle compositions: particle size, PDI, encapsulation efficiency before and after (Test Example 4).
Series [2] deals with female Balb/c mice. As to the kind of experiment: mRNA delivery efficiency and tissue distribution after in vivo tail vein injection of luciferase mRNA lipid nanoparticle compositions (Test Example 1). Particulars: LNP of the compound, tail vein injection 0.5 mg/kg, whole mouse IVIS.
A short description of series [3]: Characterization of lipid nanoparticle compositions (size, PDI, encapsulation efficiency). Particulars: for Size (nm): lipid nanoparticles of the compound with DSPC, cholesterol, DMG-PEG 50:10:38.5:1.5, luciferase mRNA.
The next series concerns interleukin 6 (IL-6). As to the kind of experiment: In vivo safety: IL-6 concentration in muscle tissue after intramuscular injection of lipid nanoparticle compositions, ELISA (Test Example 3). Particulars: LNP of the compound, hepatocyte growth factor mRNA, intramuscular 0.05 mg/kg, muscle tissue at injection site after 6 h. (ELISA stands for enzyme-linked immunosorbent assay.)

In series [4] the test system is female Balb/c mice. The experiment in a line: mRNA delivery efficiency after intramuscular administration of luciferase mRNA lipid nanoparticles (Test Example 2). Particulars: LNP of the compound, intramuscular 0.1 mg/kg, 24 h after administration.
In series [5] the test system is female Balb/c mice. The experiment in a line: Hepatocyte growth factor protein expression in muscle after intramuscular injection of HGF mRNA lipid nanoparticle compositions, ELISA (Test Example 2). The note with it: LNP of the compound, gastrocnemius muscle injection 0.05 mg/kg, muscle at injection site after 6 h.

Take `CCCCCCCCCCCOC(=O)CCCCCN(CCO)CCCCCOCC(=O)OC(CCCCCCCC)CCCCCCCC`: in series [1], the “Encapsulation efficiency before freeze-drying (%)” value was 94.0%, the PDI after freeze-drying is given as 0.16 and the PDI before freeze-drying came to 0.14. Further, the “Rate of change in particle size after freeze-drying (%)” value in series [1] (after vs before freeze-drying) amounted to 76.3%. Moreover, the “Particle size before freeze-drying (nm)” value in series [1] (lipid nanoparticles in 20 mM Tris, pH 7.5, 8% sucrose) was found to be 92.9 nm. Also, the “Particle size after freeze-drying and reconstitution (nm)” value in series [1] (reconstitution with 0.6 mL water for injection) amounted to 163.8 nm. For the same compound, the “Mean fluorescence intensity (p/s) 24 h” value in the series on female Balb/c mice [2] (24 h after administration) is given as 5.39E+09 p/s. Besides, the “Mean fluorescence intensity (p/s) 48 h” value with female Balb/c mice [2] (48 h after administration) stood at 2.27E+08 p/s. Besides, the “Size (nm)” value in series [3] (dynamic light scattering) is 90.3 nm. Besides, the “Encapsulation efficiency (%)” value in series [3] (lipid nanoparticles of the compound, luciferase mRNA, Quant-iT RiboGreen RNA assay kit) is 92%. The compound also gave a PDI in series [3] (lipid nanoparticles of the compound, luciferase mRNA, dynamic light scattering) of 0.17. The “Tissue IL-6 concentration” value in the series with interleukin 6 (IL-6) stood at 508.1 pg/mg. Also, in the series with female Balb/c mice [4], the “Mean fluorescence intensity (p/s)” value turned out to be 2.02E+08 p/s.

Turning to `CCCCCCCCCCCOC(=O)CCCCCN(CCO)CCCCCCCC(=O)OC(CCCCCCCC)CCCCCCCC`, the “Mean protein expression level” value in the series on female Balb/c mice [5] turned out to be 3.45 ng/mg. In addition, the “Size (nm)” value in series [3] (dynamic light scattering) came to 96.0 nm.
